From the Kinase Knowledgebase extract (Sharma et al. 2016) come the findings set out here.

The chains behind the UniProt entries cited, without tags or fusion partners.
UniProt P00533, whole entry, looked up: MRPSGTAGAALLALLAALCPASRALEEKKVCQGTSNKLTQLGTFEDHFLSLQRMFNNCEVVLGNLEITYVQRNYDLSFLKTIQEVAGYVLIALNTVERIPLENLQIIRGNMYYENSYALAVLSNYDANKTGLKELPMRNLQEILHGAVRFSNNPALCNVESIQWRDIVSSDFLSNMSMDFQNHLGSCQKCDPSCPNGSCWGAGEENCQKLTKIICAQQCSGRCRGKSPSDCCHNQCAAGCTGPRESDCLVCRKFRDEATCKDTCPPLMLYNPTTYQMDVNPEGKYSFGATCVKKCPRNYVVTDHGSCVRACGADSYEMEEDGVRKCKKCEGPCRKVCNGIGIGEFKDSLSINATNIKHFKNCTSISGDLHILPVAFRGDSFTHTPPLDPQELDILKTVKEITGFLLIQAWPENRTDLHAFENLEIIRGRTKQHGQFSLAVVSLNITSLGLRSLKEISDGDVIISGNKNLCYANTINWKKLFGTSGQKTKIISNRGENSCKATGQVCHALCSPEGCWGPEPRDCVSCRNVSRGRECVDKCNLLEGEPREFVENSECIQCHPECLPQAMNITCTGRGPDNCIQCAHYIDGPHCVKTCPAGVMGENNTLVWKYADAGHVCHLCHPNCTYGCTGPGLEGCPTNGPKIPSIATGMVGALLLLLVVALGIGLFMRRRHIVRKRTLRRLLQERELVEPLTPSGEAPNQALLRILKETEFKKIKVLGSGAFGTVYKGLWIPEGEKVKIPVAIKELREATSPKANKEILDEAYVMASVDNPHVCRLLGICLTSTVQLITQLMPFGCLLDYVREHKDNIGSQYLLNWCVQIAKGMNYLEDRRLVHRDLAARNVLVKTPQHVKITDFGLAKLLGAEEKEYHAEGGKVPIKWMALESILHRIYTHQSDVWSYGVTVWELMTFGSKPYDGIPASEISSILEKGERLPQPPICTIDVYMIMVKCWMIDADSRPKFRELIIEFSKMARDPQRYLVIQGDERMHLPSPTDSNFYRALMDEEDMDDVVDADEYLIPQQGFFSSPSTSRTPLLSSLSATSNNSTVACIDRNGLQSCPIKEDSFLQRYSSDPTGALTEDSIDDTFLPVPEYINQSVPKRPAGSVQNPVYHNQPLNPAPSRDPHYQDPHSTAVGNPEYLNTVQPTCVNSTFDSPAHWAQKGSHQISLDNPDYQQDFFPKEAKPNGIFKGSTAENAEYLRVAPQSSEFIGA

In this assay the target is EGFR (human) (UniProt P00533). As to conditions: mcf-10a.

The compound `COc1cc2ncnc(Nc3cccc(Cl)c3)c2cc1OC` showed a half-inhibitory concentration (IC50) of 0.173 µM.
With `COc1cc2ncnc(Nc3cccc(F)c3)c2cc1OC`, the IC50 came to 0.059 µM.

One may read the IC50 as the point on the concentration scale where inhibition reaches its midpoint. Low values mean higher potency, high ones lower potency.
